High-throughput results as filed in PubChem BioAssay.
PGC1a acetyl inh: PGC1a acetylation modulation, inhibitor mode | U2OS PGC1a acetylation, AlphaScreen anti-acetyl-lysine; with virally co-expressed GCN5 acetyltransferase | inhibition, % at 15.6 µM | 350,000 compounds, 0.17% hits | AID 651687;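 active = every replicate shows inhibition of at least 40%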;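 also: 0% = neutral control wells and 100% = positive control wells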
Yeast UUG start-1: alters start codon recognition fidelity in yeast | S. cerevisiae UUG-firefly luciferase reporter, luminescence/redox ratio | activity score, % at 18.7 µM | 350,000 compounds, 0.13% hits | AID 602363;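 active = replicate mean at a twofold rise or more, about +100% in these data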;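 note: firefly luciferase made from a UUG start codon reports start codon fidelity; reporter light over untreated wells divided by growth signal over untreated wells; some hits fall short of that in this replicate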
hiPSC survival: enhancers of human iPSC single-cell survival; survival enhancement, % at 20 µM; hiPSC single-cell survival, ATPlite luminescence; 100% = ROCK inhibitor wells, 0% = DMSO; 360,000 compounds, 0.044% hits; in the data active = survival enhancement above about 18%;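 also: cells exposed to compounds for 16 hours before the ATP read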
FN deposition inh: fibronectin deposition inhibition | AH1F fibroblasts, Alexa488-fibronectin deposition fluorescence, overnight | inhibition, % at 12.6 µM | 350,000 compounds, 0.086% hits | AID 743247;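 active = mean inhibition across replicates of 30% or more, regardless of how many single replicates reach that level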;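 also: positive control wells lacked labelled fibronectin entirely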
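Material: AH1F fibroblasts assembling fluorescent fibronectin matrix; amount: 10000 AH1F cells/well; medium: DMEM, 2% serum; reagent: Alexa488-fibronectin, 24 nM final in well; dosing: single compound dose, delivered by pin transfer; incubation: 1 h adhesion, overnight exposure; detection: fluorescence after three HBSS washes, excitation 485 nm, emission 525 nm; measure: fibronectin deposition inhibition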
Statin myotox sup: suppressors of simvastatin-induced myotoxicity in C2C12 myotubes. ATP luminescence, 48 h; scaled: DMSO 0, geranylgeraniol control 100. rescue of ATP level, % at 7.49 µM. 330,000 compounds, 0.78% hits;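 active = mean ATP rescue above about 67%, or every replicate alone reaching that limit, limit read from the data, passing the limit was not always enough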;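 also: myotubes were challenged with 10 µM simvastatin during compound exposure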
Yeast UUG start-2: modulators of start codon recognition fidelity in yeast | shares compounds with Yeast UUG start-1 | S. cerevisiae UUG-start firefly luciferase, luminescence, 4 h; 100% means double the DMSO signal | activation, % at 38 µM | 540 tested, under 10 active | AID 652061;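 active = signal increase whose fitted curve reaches an absolute level of 40 at a concentration under 10 µM; inactive = activity opposite to the expected increase, or the rest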
The depositor's hits bear a star. An excerpt weighted towards active compounds, which were near 0.91% of everything screened.

Results for CC(C)CNC(=O)c1cccc(NC(=O)Cc2ccc(Cl)cc2)c1 ?
PGC1a acetyl inh: -14.5; Yeast UUG start-1: 249.0*; hiPSC survival: -0.1; FN deposition inh: 0.1; Statin myotox sup: -17.9; Yeast UUG start-2: -2.7

What do the screens show for `CN1C(=O)c2cc(NC(=O)Nc3ccccc3Cl)ccc2OC[C@@H]2O[C@H](CC(=O)NCCCN3CCOCC3)CC[C@@H]21`?
FN deposition inh: 0.3; Statin myotox sup: -24.4

What do the screens show for `N=c1c(C(=O)NC2CCCC2)cc2c(=O)n3ccccc3nc2n1CCN1CCOCC1`?
Yeast UUG start-1: 474.5*; hiPSC survival: -1.2; FN deposition inh: 1.1; Statin myotox sup: -9.7; Yeast UUG start-2: -9.0

Results for N=c1c(C(=O)NC2CCCC2)cc2c(=O)n3ccccc3nc2n1CCCN1CCOCC1 ?
PGC1a acetyl inh: 5.8; Yeast UUG start-1: -6.2; hiPSC survival: 0.4; FN deposition inh: -6.7; Statin myotox sup: 1.2

What do the screens show for `CN(C(=O)c1ccccc1Cl)C1CCCCC1`?
PGC1a acetyl inh: 1.8; Yeast UUG start-1: -12.6; hiPSC survival: -2.2; FN deposition inh: -2.0; Statin myotox sup: 4.8

What do the screens show for `CN(N=Nc1ccccc1C(=O)O)C1CCCCC1`?
Yeast UUG start-1: 168.9*; hiPSC survival: 0.9; FN deposition inh: 7.9; Statin myotox sup: 32.8; Yeast UUG start-2: -5.4

Results for O=C(Nc1ccc([N+](=O)[O-])cc1)C(=O)Nc1cccc(C(=O)O)c1 ?
PGC1a acetyl inh: -5.8; Yeast UUG start-1: 170.5*; hiPSC survival: -0.7; FN deposition inh: -1.4; Statin myotox sup: -51.8; Yeast UUG start-2: -56.3

How did O=S(=O)(c1ccc(F)cc1)N1CC[C@H]2[C@H](CO)Nc3ccc(Br)cc3[C@H]21 do in these assays?
PGC1a acetyl inh: -14.3; Yeast UUG start-1: -6.4; FN deposition inh: 20.0; Statin myotox sup: 26.6

Results for CN(C[C@H]1[C@H](c2ccccc2)[C@@H](CO)N1C(=O)c1ccccc1)C(=O)C1CC1 ?
PGC1a acetyl inh: 0.9; Yeast UUG start-1: 155.6*; FN deposition inh: 4.6; Statin myotox sup: 8.5; Yeast UUG start-2: inactive

What do the screens show for `COc1ccc(OC)c(NC(=O)Cc2nn(C)c(=O)c3ccccc23)c1`?
PGC1a acetyl inh: 6.8; Yeast UUG start-1: -10.5; hiPSC survival: -2.0; Statin myotox sup: -7.7; Yeast UUG start-2: 9.5

What do the screens show for `Cn1nc(CC(=O)Nc2cccc3ncccc23)c2ccccc2c1=O`?
PGC1a acetyl inh: 1.5; Yeast UUG start-1: -13.3; hiPSC survival: 0.0; FN deposition inh: 3.9; Statin myotox sup: -10.5; Yeast UUG start-2: -3.6

How did Cc1nn(CC(=O)N2CCN(c3ccccc3)CC2)c(=O)c2ccccc12 do in these assays?
PGC1a acetyl inh: 7.5; Yeast UUG start-1: -23.8; hiPSC survival: -0.4; FN deposition inh: -2.1; Statin myotox sup: -2.3; Yeast UUG start-2: 0.8

What do the screens show for `COc1ccc(OC)c(NC(=O)Cn2cc(C(=O)c3ccco3)c3ccccc32)c1`?
PGC1a acetyl inh: -7.9; Yeast UUG start-1: 134.4*; hiPSC survival: -3.1; FN deposition inh: 3.0; Statin myotox sup: 4.7; Yeast UUG start-2: 12.5

Results for COc1ccccc1S(=O)(=O)N[C@@H]1CC[C@@H](CCn2cc(C3CCCC3)nn2)O[C@H]1CO ?
FN deposition inh: 1.7

What do the screens show for `COc1ccc(N2CCN(C(=O)Cc3nn(C)c(=O)c4ccccc34)CC2)cc1`?
PGC1a acetyl inh: 11.1; Yeast UUG start-1: -20.0; hiPSC survival: -0.7; Statin myotox sup: -3.0; Yeast UUG start-2: 9.5

How did CC1(C)CC(=O)C2=C(C1)NC(=S)C(C#N)C21CCCCC1 (stereo unspecified) do in these assays?
PGC1a acetyl inh: 13.2; Yeast UUG start-1: 109.7*; hiPSC survival: -0.5; FN deposition inh: -11.0; Yeast UUG start-2: 12.5

Results for OCCNc1nc(NCc2ccccc2)c2ccccc2n1 ?
PGC1a acetyl inh: -0.1; Yeast UUG start-1: 154.6*; hiPSC survival: -0.5; FN deposition inh: -6.1; Statin myotox sup: -27.1; Yeast UUG start-2: -2.6

Results for CCOc1ccc(C(C)=O)cc1CSc1nc(C)cc(C)n1 ?
PGC1a acetyl inh: -2.8; Yeast UUG start-1: 212.6*; hiPSC survival: -0.2; FN deposition inh: -2.5; Statin myotox sup: -12.0; Yeast UUG start-2: 4.2

Looked up one by one from the entries so far, two records:
What do the screens show for `COc1ccc(N2CCN(C(=O)Cc3nn(C)c(=O)c4ccccc34)CC2)cc1`?
PGC1a acetyl inh: 11.1; Yeast UUG start-1: -20.0; hiPSC survival: -0.7; Statin myotox sup: -3.0; Yeast UUG start-2: 9.5

Results for COc1ccccc1S(=O)(=O)N[C@@H]1CC[C@@H](CCn2cc(C3CCCC3)nn2)O[C@H]1CO ?
FN deposition inh: 1.7
